Measurements from ChEMBL document CHEMBL1132319, “2,3-Dihydro-2-oxo-1H-benzimidazole-1-carboxamides with selective affinity for the 5-HT(4) receptor: synthesis and structure-affinity and structure-activity relationships of a new series of partial agonist and antagonist derivatives” (J Med Chem, 1999).

Assays:
[1] = system: 5-HT4 receptor (Rattus norvegicus); experiment: Agonistic activity against 5-hydroxytryptamine 4 receptor
[2] = system: 5-HT4 receptor (Rattus norvegicus); experiment: Antagonistic activity against 5-hydroxytryptamine 4 receptor

Structure (SMILES) | Intrinsic activity [1] | pKb [2]
CC(C)n1c(=O)n(C(=O)NCCN2CCN(C)CC2)c2cc(F)c([N+](=O)[O-])cc21 | < 0.3 | < 6
CCCCN1CCN(CCNC(=O)n2c(=O)n(C(C)C)c3ccccc32)CC1 | < 0.3 | 7.94
CN1CCN(CCNC(=O)n2c(=O)n(CCc3ccccc3)c3ccccc32)CC1 | < 0.3 | < 6
Cc1cccc2c1n(C(C)C)c(=O)n2C(=O)NCCN1CCN(C)CC1 | < 0.3 | < 6
CN1CCN(CCNC(=O)n2c(=O)n(C3CC3)c3ccccc32)CC1 | 0.36 | 7.24
CC(C)n1c(=O)n(C(=O)NCN2CCN(C)CC2)c2ccccc21 | < 0.3 | < 6
CC(C)n1c(=O)n(C(=O)NCCN2CCN(CCCOc3ccc(F)cc3)CC2)c2ccccc21 | 0.78 | 6.11
CC(C)n1c(=O)n(C(=O)NC2CC3CCC(C2)N3C)c2ccccc21 (centres undefined) | 0.7 | < 6
CCN1CCN(CCNC(=O)n2c(=O)n(CC)c3ccccc32)CC1 | < 0.3 | 6.89
CCCN1CCN(CCNC(=O)n2c(=O)n(CC)c3ccccc32)CC1 | < 0.3 | 7.63
CC(C)n1c(=O)n(C(=O)NCCN2CCN(Cc3ccc(F)cc3)CC2)c2ccccc21 | 0.78 | < 6
CCn1c(=O)n(C(=O)NCCN2CCN(C(C)C)CC2)c2ccccc21 | < 0.3 | 7.42
CC(C)N1CCN(CCNC(=O)n2c(=O)n(C3CC3)c3ccccc32)CC1 | < 0.3 | 7.38
CC(C)N1CCN(CCNC(=O)n2c(=O)n(C(C)C)c3ccccc32)CC1 | 0.66 | < 6
Cn1cc(C(=O)OCC2CCN(CCNS(C)(=O)=O)CC2)c2ccccc21 | – | 9.49
